{"source": "patent US8067586B2", "about": "“Fused heteroaryl derivatives” (Astellas Pharma Inc., priority 2000, dated 2011)", "system": "A375 cells", "assay": "Melanoma cell growth inhibition (Alamar Blue)", "format": "cell-based", "conditions": "Homo sapiens, A-375, 46 h, read-out: IC50, melanoma cell growth inhibition", "procedure": "A375 cells from a melanoma cell line were cultured in DMEM medium (GIBCO) supplemented with 10% fetal bovine serum. A375 cells at 10,000 cells/100 μl were added to a 96 well plate which contained 1 μl/well of the test compounds (final concentration of 0.001˜30 μM). After incubation for over 46 hours, Alamar Blue reagent was added to the medium (10 μl/well).", "data": [{"smiles": "Nc1ccc(C(=O)Nc2cccc(-c3nc(N4CCOCC4)c4oc5ncccc5c4n3)c2)cn1", "note": "[Co 17, 6-amino-3′-(4-morpholinopyrido[3′,2′:4,5]furo[3,2-d]pyrimidin-2-yl)nicotinanilide]", "values": [{"measurement": "IC50", "value": "330 to 4260", "unit": "nM"}]}]}
